The source of these data is patent US20250163048A1 (Tango Therapeutics, Inc., priority 2022, published 2025).

The subject of experiment [1] is HAP1 MTAP-deleted cell line. The experiment in a line: SDMA in-cell western assay, HAP1 MTAP-deleted. The following applies: for IC50 / IC90: Homo sapiens; for Hap1 MTAP intact/deleted ratio: IC50 ratio between HAP1 MTAP-intact and HAP1 MTAP-deleted cell line.
Experiment [2] relates to MTAP-deleted cell line. The experiment in a line: viability assay for the MTAP-deleted cell line. The experiment is classed as cell-based. To be noted: Homo sapiens, HAP1, viability assay.
Experiment [3] concerns HAP1 MTAP-intact cell line. The experiment in a line: SDMA in-cell western assay, HAP1 MTAP-intact. The following applies: Homo sapiens.
Setting [4] is: HAP1, read-out: Hap1 MTAP deleted IC50, SDMA in-cell western, HAP1 MTAP-deleted cell line.
Setting [5] is: HAP1, read-out: Hap1 MTAP deleted IC90, SDMA in-cell western, HAP1 MTAP-deleted cell line.
[6] abbreviates: HAP1, read-out: Hap1 MTAP intact IC50, SDMA in-cell western, HAP1 MTAP-intact cell line.
Where [7] appears, read: HAP1, read-out: Hap1 MTAP deleted IC50, SDMA in-cell western assay, HAP1 MTAP-deleted cell line.
Where [8] appears, read: HAP1, read-out: Hap1 MTAP deleted IC90, SDMA in-cell western assay, HAP1 MTAP-deleted cell line.
Setting [9] is: HAP1, read-out: Hap1 MTAP intact IC50, SDMA in-cell western assay, HAP1 MTAP-intact cell line.

Molecules are shown by their SMILES. Read-outs that look alike come from different tables or passages of the source. Some results are limits rather than exact numbers.

On to `C[C@H]1CC[C@H](c2cccc(OC[C@H]3CCCN3C)c2)N(C(=O)C(=O)Nc2cncc3cn[nH]c23)C1` [Compound 118, 2-((2R,5S)-5-methyl-2-(3-(((R)-1-methylpyrrolidin-2-yl)methoxy)phenyl)piperidin-1-yl)-2-oxo-N-(1H-pyrazolo[4,3-c]pyridin-7-yl)acetamide], for which the results for the IC50 in experiment [1] (setting [4]), in experiment [2] and in experiment [3] (setting [6]) were 0.005 to 0.05 µM, 0.1 to 1 µM and above 0.05 µM, respectively. In addition, the IC90 in experiment [1] (setting [5]) was above 0.125 µM. Moreover, the “Hap1 MTAP intact/deleted ratio” value in experiment [1] (SDMA in-cell western) is “A (“A” indicates an IC50 ratio greater than or equal to 30 fold)”.

With `C[C@H]1CC[C@H](c2ccc(N3CCN(C)CC3)cc2)N(C(=O)C(=O)Nc2cnc(N)c3cn[nH]c23)C1` [Compound 120, N-(4-amino-1H-pyrazolo[4,3-c]pyridin-7-yl)-2-((2R,5S)-5-methyl-2-(4-(4-methylpiperazin-1-yl)phenyl)piperidin-1-yl)-2-oxoacetamide], the IC90 in experiment [1] (setting [5]) was in the range of 0.075 to 0.125 µM.

For `C[C@@H]1CC[C@@H](c2cccs2)N(C(=O)C(=O)Nc2cnc(N)c3cn[nH]c23)C1` (racemic) [Compound 217, N-(4-Amino-1H-pyrazolo[4,3-c]pyridin-7-yl)-2-oxo-2-[rac-(2R,5S)-5-methyl-2-(2-thienyl)-1-piperidyl]acetamide], the IC50 in experiment [1] (setting [7]) is below 0.005 µM; in experiment [2], below 0.1 µM; in experiment [3] (setting [9]) it was 0.005 to 0.05 µM. Besides, the IC90 in experiment [1] (setting [8]) was below 0.075 µM. Further, in experiment [1] (SDMA in-cell western assay), the “Hap1 MTAP intact/deleted ratio” value is given as “B (“B” indicates an IC50 ratio greater than or equal to 15 fold but lower than 30 fold)”.

As to `C[C@H]1CC[C@H](c2ccc3c(c2)CN(C)CC3)N(C(=O)C(=O)Nc2cnc(N)c3cn[nH]c23)C1` (racemic) [Compound 279, N-(4-Amino-2H-pyrazolo[4,3-c]pyridin-7-yl)-2-oxo-2-[rac-(5S)-5-methyl-2-(2-methyl-3,4-dihydro-1H-isoquinolin-7-yl)-1-piperidyl]acetamide], the IC50 in experiment [1] (setting [7]) was below 0.005 µM; in experiment [2], below 0.1 µM; in experiment [3] (setting [9]) it was 0.005 to 0.05 µM. Further, the IC90 in experiment [1] (setting [8]) is below 0.075 µM. Besides, in experiment [1] (SDMA in-cell western assay), the “Hap1 MTAP intact/deleted ratio” value was “C (“C” indicates an IC50 ratio of less than 15 fold)”.

Regarding `C[C@@H]1CC[C@@H](c2ccc3sc(CCN(C)C)nc3c2)N(C(=O)C(=O)Nc2cncc3cn[nH]c23)C1` (relative stereo) [Compound 70, rel-2-((2R,5S)-2-(2-(2-(dimethylamino)ethyl)benzo[d]thiazol-5-yl)-5-methylpiperidin-1-yl)-2-oxo-N-(1H-pyrazolo[4,3-c]pyridin-7-yl)acetamide], the IC50 is above 0.05 µM in experiment [1] (setting [4]), above 1 µM in experiment [2] and above 0.05 µM in experiment [3] (setting [6]). Besides, the IC90 in experiment [1] (setting [5]) was above 0.125 µM. Also, the “Hap1 MTAP intact/deleted ratio” value in experiment [1] (SDMA in-cell western) is listed as “C (“C” indicates an IC50 ratio of less than 15 fold)”.

With `CO[C@@H]1CN(C)CC[C@H]1c1nc2cc([C@H]3CC[C@H](C)CN3C(=O)C(=O)Nc3cncc4cn[nH]c34)ccc2s1` (mixture of isomers) [Compound 128, 2-((2R,5S)-2-(2-(rac-(3S,4R)-3-methoxy-1-methylpiperidin-4-yl)benzo[d]thiazol-5-yl)-5-methylpiperidin-1-yl)-2-oxo-N-(1H-pyrazolo[4,3-c]pyridin-7-yl)acetamide], the concentration for an effect of 90% (IC90) in experiment [1] (setting [5]) lay within 0.075 to 0.125 µM.

Take `C[C@H]1CC[C@H](c2ccc3sc(C[C@@H]4CCN(C)C[C@H]4C)nc3c2)N(C(=O)C(=O)Nc2cncc3cn[nH]c23)C1` (single isomer, unassigned) [Compound 156]: the values for the half-maximal inhibitory concentration (IC50) in experiment [1] (setting [4]), in experiment [2] and in experiment [3] (setting [6]) were below 0.005 µM, below 0.1 µM and 0.005 to 0.05 µM, respectively. Besides, the IC90 in experiment [1] (setting [5]) is below 0.075 µM. Also, in experiment [1] (SDMA in-cell western), the “Hap1 MTAP intact/deleted ratio” value was “B (“B” indicates an IC50 ratio greater than or equal to 15 fold but lower than 30 fold)”.

Take `Cc1ncc(NC(=O)C(=O)N2C[C@@H](C)CC[C@@H]2c2ccc3sc(C4CCN(C)CC4)nc3c2)c2[nH]ncc12` [Compound 9, N-(4-methyl-1H-pyrazolo[4,3-c]pyridin-7-yl)-2-oxo-2-[(2R,5S)-5-methyl-2-[2-(1-methyl-4-piperidyl)-1,3-benzothiazol-5-yl]-1-piperidyl]acetamide]: the IC50 in experiment [1] (setting [4]) is below 0.005 µM; in experiment [2], below 0.1 µM; in experiment [3] (setting [6]), 0.005 to 0.05 µM. Moreover, the concentration for an effect of 90% (IC90) in experiment [1] (setting [5]) is below 0.075 µM. Further, the “Hap1 MTAP intact/deleted ratio” value in experiment [1] (SDMA in-cell western) is “C (“C” indicates an IC50 ratio of less than 15 fold)”.

In the case of `Cc1cnc2cc(NC(=O)C(=O)N3C[C@@H](C)CC[C@@H]3c3ccc4sc(CCN(C)C)nc4c3)ccn12` [Compound 34, 2-((2R,5S)-2-(2-(2-(dimethylamino)ethyl)benzo[d]thiazol-5-yl)-5-methylpiperidin-1-yl)-N-(3-methylimidazo[1,2-a]pyridin-7-yl)-2-oxoacetamide], the IC90 in experiment [1] (setting [5]) was in the range of 0.075 to 0.125 µM.

Turning to `CC(C)n1cc2ccc([C@H]3CC[C@H](C)CN3C(=O)C(=O)Nc3cnc(N)c4cn[nH]c34)cc2n1` (racemic) [Compound 240, N-(4-Amino-1H-pyrazolo[4,3-c]pyridin-7-yl)-2-oxo-2-[rac-(2R,5S)-2-(2-isopropylindazol-6-yl)-5-methyl-1-piperidyl]acetamide], the concentration for half-maximal inhibition (IC50) in experiment [1] (setting [7]) was below 0.005 µM; in experiment [2], below 0.1 µM; in experiment [3] (setting [9]) it was below 0.005 µM. For the same compound, in experiment [1] (setting [8]), the IC90 was below 0.075 µM. In addition, the “Hap1 MTAP intact/deleted ratio” value in experiment [1] (SDMA in-cell western assay) was “C (“C” indicates an IC50 ratio of less than 15 fold)”.

`C[C@H]1CC[C@H](c2ccc3c(cnn3C)c2)N(C(=O)C(=O)Nc2cnc(N)c3cn[nH]c23)C1` [Compound 152, N-(4-amino-1H-pyrazolo[4,3-c]pyridin-7-yl)-2-((2R,5S)-5-methyl-2-(1-methyl-1H-indazol-5-yl)piperidin-1-yl)-2-oxoacetamide]: the IC50 was below 0.005 µM in experiment [1] (setting [4]), below 0.1 µM in experiment [2] and 0.005 to 0.05 µM in experiment [3] (setting [6]). The concentration for an effect of 90% (IC90) in experiment [1] (setting [5]) was below 0.075 µM. Besides, in experiment [1] (SDMA in-cell western), the “Hap1 MTAP intact/deleted ratio” value was “B (“B” indicates an IC50 ratio greater than or equal to 15 fold but lower than 30 fold)”.

With `C[C@H]1CC[C@H](c2ccc3sc(N4CCN(C)CC4)nc3c2)N(C(=O)C(=O)Nc2cncc3cn[nH]c23)C1` [Compound 40, 2-((2R,5S)-5-methyl-2-(2-(4-methylpiperazin-1-yl)benzo[d]thiazol-5-yl)piperidin-1-yl)-2-oxo-N-(1H-pyrazolo[4,3-c]pyridin-7-yl)acetamide], the figures for the IC50 in experiment [1] (setting [4]), in experiment [2] and in experiment [3] (setting [6]) were below 0.005 µM, below 0.1 µM and 0.005 to 0.05 µM, respectively. Moreover, the IC90 in experiment [1] (setting [5]) is below 0.075 µM. For the same compound, the “Hap1 MTAP intact/deleted ratio” value in experiment [1] (SDMA in-cell western) is reported as “C (“C” indicates an IC50 ratio of less than 15 fold)”.

On to `C[C@H]1CC[C@H](c2ccc3sc([C@H]4CCN(C)C(C)(C)C4)nc3c2)N(C(=O)C(=O)Nc2cncc3c(N)nccc23)C1` (single isomer, unassigned) [Compound 103], for which the IC50 was below 0.005 µM in experiment [1] (setting [4]), below 0.1 µM in experiment [2] and 0.005 to 0.05 µM in experiment [3] (setting [6]). For the same compound, in experiment [1] (setting [5]), the IC90 is below 0.075 µM. Further, in experiment [1] (SDMA in-cell western), the “Hap1 MTAP intact/deleted ratio” value is “B (“B” indicates an IC50 ratio greater than or equal to 15 fold but lower than 30 fold)”.

On to `C[C@H]1C[C@H](c2nc3cc([C@H]4CC[C@H](C)CN4C(=O)C(=O)Nc4cncc5cn[nH]c45)ccc3s2)CN(C)C1` (single isomer, unassigned) [Compound 179], for which the IC50 in experiment [1] (setting [4]) is below 0.005 µM; in experiment [2], below 0.1 µM; in experiment [3] (setting [6]), above 0.05 µM. In experiment [1] (setting [5]), the IC90 was below 0.075 µM. Further, the “Hap1 MTAP intact/deleted ratio” value in experiment [1] (SDMA in-cell western) is “B (“B” indicates an IC50 ratio greater than or equal to 15 fold but lower than 30 fold)”.

For the compound `Cc1ccc([C@H]2CC[C@H](C)CN2C(=O)C(=O)Nc2cnc(N)c3cn[nH]c23)cc1` (racemic) [Compound 207, N-(4-Amino-1H-pyrazolo[4,3-c]pyridin-7-yl)-2-oxo-2-[rac-(2R,5S)-5-methyl-2-(p-tolyl)-1-piperidyl]acetamide], the IC50 was below 0.005 µM in experiment [1] (setting [7]), below 0.1 µM in experiment [2] and 0.005 to 0.05 µM in experiment [3] (setting [9]). For the same compound, the concentration for an effect of 90% (IC90) in experiment [1] (setting [8]) is below 0.075 µM. For the same compound, the “Hap1 MTAP intact/deleted ratio” value in experiment [1] (SDMA in-cell western assay) was “B (“B” indicates an IC50 ratio greater than or equal to 15 fold but lower than 30 fold)”.

Turning to `Cc1cnc2cc(NC(=O)C(=O)N3C[C@@H](C)CC[C@@H]3c3ccc4sc(CCN5CCCC5)nc4c3)ccn12` [Compound 24, 2-((2R,5S)-5-methyl-2-(2-(2-(pyrrolidin-1-yl)ethyl)benzo[d]thiazol-5-yl)piperidin-1-yl)-N-(3-methylimidazo[1,2-a]pyridin-7-yl)-2-oxoacetamide], the IC50 in experiment [1] (setting [4]) was 0.005 to 0.05 µM; in experiment [2] it was 0.1 to 1 µM; in experiment [3] (setting [6]), above 0.05 µM. Besides, the IC90 in experiment [1] (setting [5]) lay in the range of 0.075 to 0.125 µM. The “Hap1 MTAP intact/deleted ratio” value in experiment [1] (SDMA in-cell western) was “A (“A” indicates an IC50 ratio greater than or equal to 30 fold)”.

Turning to `C[C@H]1CC[C@H](c2ccc3c(c2)CCC(=O)N3)N(C(=O)C(=O)Nc2cnc(N)c3cn[nH]c23)C1` (racemic) [Compound 218, N-(4-Amino-1H-pyrazolo[4,3-c]pyridin-7-yl)-2-oxo-2-[rac-(2R,5S)-5-methyl-2-(2-oxo-3,4-dihydro-1H-quinolin-6-yl)-1-piperidyl]acetamide], the IC90 in experiment [1] (setting [8]) was 0.075 to 0.125 µM.

As for `C[C@H]1CC[C@H](c2ccc3sc(C4(CN(C)C)COC4)nc3c2)N(C(=O)C(=O)Nc2ccn3ccnc3c2)C1` [Compound 96, 2-((2R,5S)-2-(2-(3-((dimethylamino)methyl)oxetan-3-yl)benzo[d]thiazol-5-yl)-5-methylpiperidin-1-yl)-N-(imidazo[1,2-a]pyridin-7-yl)-2-oxoacetamide], the IC90 in experiment [1] (setting [5]) fell in the range of 0.075 to 0.125 µM.
